Results on one molecule are retold here after patent US20260184748A1 (University of Pennsylvania, published 2026).

This assay deals with T1, F2RL3 (UniProt Q96RI0 18-385, limits assumed).
T1 sequence (looked up): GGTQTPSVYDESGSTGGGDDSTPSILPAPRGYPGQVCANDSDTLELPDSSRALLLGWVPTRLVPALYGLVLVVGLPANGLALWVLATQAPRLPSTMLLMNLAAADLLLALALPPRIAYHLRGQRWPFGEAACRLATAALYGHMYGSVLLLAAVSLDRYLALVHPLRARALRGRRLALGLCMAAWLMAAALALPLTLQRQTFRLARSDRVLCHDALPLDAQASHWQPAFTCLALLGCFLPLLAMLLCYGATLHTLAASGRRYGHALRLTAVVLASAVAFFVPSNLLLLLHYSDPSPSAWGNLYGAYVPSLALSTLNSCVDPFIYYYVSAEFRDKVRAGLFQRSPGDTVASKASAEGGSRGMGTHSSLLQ
In words: cell-based or functional assay.

In the case of AYPGKF (C-terminal -NH2) [AYPGKF-NH2], the “EC50 (RC50), arrestin, agonist mode” value came out at 2280 nM.
